Test results published in PubChem BioAssay AID743269 (The Scripps Research Institute Molecular Screening Center, 2014).
This is a selection; strong and weak results do not stand in their true shares. Activity calls are given as the source filed them.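 Rule for the calls: active = inhibition above the screen-wide mean plus 3 SD (cut at about 13% in these data); inactive = the rest.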

What follows are molecules tested on HIV-1 integrase (with human LEDGF/p75) (assay: blockers of LEDGF/p75-dependent integrase strand transfer – biochemical, TR-FRET, high throughput, primary screen (AID 743269;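 note: signal is the Cy5 over europium emission ratio at 671 and 618 nm; 0% = plate median of compound wells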)). Settings: TR-FRET IN-LEDGF/p75 DNA integration, Eu/Cy5; at 3.7 µM; stronger effect = higher value.

Row | SMILES | inhibition
1 | CCC(=O)N(c1ccccc1)C1(COC)CCN(CCn2nnn(CC)c2=O)CC1 | inactive: -1.47%
2 | CCC(=O)N(c1ccccc1)C1(COC)CCN(CCc2cccs2)CC1 | inactive: 1.87%
